# Experimental data reported in PubChem BioAssay AID1508586 (ICCB-Longwood Screening Facility, Harvard Medical School, 2020).
# This is a selection; strong and weak results do not stand in their true shares. The source made the active and inactive calls.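 The calls were made as follows: active = mean z-score across replicates of 1.96 or higher in either the MELAS or the Rieske mutant cell line; inactive = the rest.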
# Assay: survival rescue of mitochondrial mutant cells in low glucose, primary screen, MELAS cybrids, Rieske KO mouse fibroblasts, CellTiter-Glo (AID 1508586);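 also: test concentration not given here; z relative to plate mean and SD of compound and empty wells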
# Settings: MELAS cybrid survival, CellTiter-Glo 48 h, stronger effect = higher value
row,SMILES,z-score
1,NC(=O)Nc1ccc([As](=O)(O)O)cc1,inactive: 0.0727
